Earlier results, collected in paper PMC6825517 (Journal of medicinal chemistry, 2019).

System: 468 kinases
Details: at 3 μM; cited from earlier work

SMILES: CCN(CC)CCNC(=O)c1c(C)[nH]c(/C=C2\C(=O)Nc3ccc(F)cc32)c1C [Sunitinib]
- S(35) score: 0.57
